Experiment [1] relates to mAB/LPS-induced experimental arthritis. The experiment can be described thus: Antibody-induced arthritis in mice (mAb/LPS model, 11 treatment days). The conditions noted are these: for hind paw thickness: study days 5, 7, 9, 11 and 14.
For experiment [2], the system named is collagen antibody-induced arthritis. The experiment can be described thus: Mouse model of collagen antibody-induced arthritis (CAIA). The note with it: both doses tested (5 or 6.25 mg/kg IP) once daily on days 3-13. It is filed as in vivo, Male BALB/c mice. The method, then:
Cytokine and chemokine protein levels were analyzed by cytometric bead array on a Luminex 100. CAIA model: […] Compound A and ETN were administered once daily on days 3-13. […] Both hind paws (left and right) of each animal were examined for signs of arthritogenic responses in blinded fashion. Arthritic reactions were scored and recorded according to a 0-4 scale in ascending order of severity. Hind paw thickness was measured in mm using a Mitutoyo Electronic Digital Caliper.

`CCOc1cc([C@@H](CS(C)(=O)=O)N2C(=O)c3cccc(NC(C)=O)c3C2=O)ccc1OC` [Compound A, (S)-N-(2-(1-(3-ethoxy-4-methoxyphenyl)-2-(methylsulfonyl)ethyl)-1,3-dioxoisoindolin-4-yl)acetamide]: the hind paw thickness entry in experiment [1] (5 or 25 mg/kg PO once daily, 11 days, vs. Vehicle Control) is “statistically significant reduction in paw swelling”.

For etanercept [reference compound], the “hind-paw arthritic reaction scores and thickness” value in experiment [2] was “significantly reduced (p<0.01)”. Further, the hind paw thickness entry in experiment [1] (5 or 6.25 mg/kg, Positive Control, listed as Enbrel) is given as “statistically significant reduction in paw swelling”. The “mean group percentage change in hind paw thickness vs. arthritis induction initiation (Day 0)” value in experiment [1] (5 or 6.25 mg/kg, vs. Vehicle Control, Days 7, 9, 11 & 14) was “highly significantly lower (P<0.01)”.

(Values after patent US9272035B2, “Methods and compositions using PDE4 inhibitors for the treatment and management of autoimmune and inflammatory diseases” (Celgene Corporation, priority 2011, dated 2016).)
